Key:
mTGR5 = biological target: T1, mTGR5 (Mus musculus, UniProt Q80SS6); assay: TGR5/CRE Luciferase Assay (mTGR5); assay type: cell-based; conditions: percentage of the 10 μM LCA value; HEK 293 cells transfected with mTGR5
T1 construct: expressed in transfected cells; host or cells: HEK293 cells, transiently co-transfected with the pCRE TA-Luciferase reporter
T1 sequence (Q80SS6 1-329): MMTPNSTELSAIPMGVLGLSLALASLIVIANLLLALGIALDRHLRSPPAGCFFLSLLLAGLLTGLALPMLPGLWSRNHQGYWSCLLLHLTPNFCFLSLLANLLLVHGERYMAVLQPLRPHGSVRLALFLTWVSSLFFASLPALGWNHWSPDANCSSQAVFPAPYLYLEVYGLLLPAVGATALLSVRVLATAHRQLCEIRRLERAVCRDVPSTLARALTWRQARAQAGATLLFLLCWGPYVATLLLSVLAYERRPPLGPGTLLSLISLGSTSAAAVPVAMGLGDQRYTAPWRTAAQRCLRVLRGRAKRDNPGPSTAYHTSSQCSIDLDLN

hTGR5 = biological target: T2, hTGR5 (Homo sapiens, UniProt Q8TDU6); assay: TGR5/CRE Luciferase Assay (hTGR5); assay type: cell-based; conditions: percentage of the 10 μM LCA value; HEK 293 cells transfected with hTGR5
T2 construct: expressed in transfected cells; host or cells: HEK293 cells, transiently co-transfected with the pCRE TA-Luciferase reporter
T2 sequence (Q8TDU6 1-330): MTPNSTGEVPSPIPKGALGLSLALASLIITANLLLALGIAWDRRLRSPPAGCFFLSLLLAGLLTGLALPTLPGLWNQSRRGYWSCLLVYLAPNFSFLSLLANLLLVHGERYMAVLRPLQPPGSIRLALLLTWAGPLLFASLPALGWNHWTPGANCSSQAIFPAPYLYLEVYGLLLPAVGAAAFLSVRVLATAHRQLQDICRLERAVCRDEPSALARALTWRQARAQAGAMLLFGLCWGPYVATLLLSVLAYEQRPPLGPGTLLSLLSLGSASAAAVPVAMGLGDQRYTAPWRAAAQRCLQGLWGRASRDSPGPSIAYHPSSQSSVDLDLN

| SMILES | mTGR5 % trans (mTGR5) | hTGR5 % trans (hTGR5) |
| --- | --- | --- |
| COCCN1C(=O)CC(c2ccc(Cl)cc2)C(C(=O)OCc2cccc(C)c2)=C1C (centres unmarked) [Example 99, m-tolylmethyl 4-(4-chlorophenyl)-1-(2-methoxyethyl)-6-methyl-2-oxo-3,4-dihydropyridine-5-carboxylate] | 67% | – |
| COCCN1C(=O)CC(c2ccc(Cl)cc2)C(C(=O)OCc2ccc(C(F)(F)F)cc2)=C1C (centres unmarked) [Example 92, [4-(trifluoromethyl)phenyl]methyl 4-(4-chlorophenyl)-1-(2-methoxyethyl)-6-methyl-2-oxo-3,4-dihydropyridine-5-carboxylate] | 59% | – |
| COCCN1C(=O)CC(c2ccc(Cl)cc2)C(C(=O)OCc2ccccc2)=C1C (centres unmarked) [Compound 37, Benzyl 4-(4-chlorophenyl)-1-(2-methoxyethyl)-6-methyl-2-oxo-3,4-dihydropyridine-5-carboxylate] | 78% | 75% |
| CC1=C(C(=O)OCc2ccccc2)C(c2ccc(Cl)cc2F)CC(=O)N1 (centres unmarked) [Compound 15, benzyl 4-(4-chloro-2-fluoro-phenyl)-6-methyl-2-oxo-3,4-dihydro-1H-pyridine-5-carboxylate] | – | 49% |
| COCCN1C(=O)CC(c2ccc(Cl)cc2)C(C(=O)OCc2ccccc2C)=C1C (centres unmarked) [Example 98, o-tolylmethyl 4-(4-chlorophenyl)-1-(2-methoxyethyl)-6-methyl-2-oxo-3,4-dihydropyridine-5-carboxylate] | 86% | 91% |
| COCCN1C(=O)CC(c2ccc(Cl)cc2)C(C(=O)OCc2ccccc2OC)=C1C (centres unmarked) [Compound 64, (2-methoxyphenyl)methyl 4-(4-chlorophenyl)-1-(2-methoxyethyl)-6-methyl-2-oxo-3,4-dihydropyridine-5-carboxylate] | – | 82% |
| COCCN1C(=O)CC(c2ccc(Cl)cc2)C(C(=O)OCc2ccc(-c3ccccc3)cc2)=C1C (centres unmarked) [Example 108, (4-phenylphenyl)methyl 4-(4-chlorophenyl)-1-(2-methoxyethyl)-6-methyl-2-oxo-3,4-dihydropyridine-5-carboxylate] | 72% | 72% |
| COc1ccc(C2CC(=O)NC(C)=C2C(=O)OCc2ccccc2)cc1 (centres unmarked) [Compound 6, 4-(4-Methoxy-phenyl)-2-methyl-6-oxo-1,4,5,6-tetrahydro-pyridine-3-carboxylic acid benzyl ester] | 11% | 19% |
| COCCN1C(=O)CC(c2ccc(Cl)cc2)C(C(=O)OCc2ccc3ccccc3c2)=C1C (centres unmarked) [Example 106, 2-naphthylmethyl 4-(4-chlorophenyl)-1-(2-methoxyethyl)-6-methyl-2-oxo-3,4-dihydropyridine-5-carboxylate] | 96% | 83% |
| COCCN1C(=O)CC(c2ccc(Cl)cc2)C(C(=O)OCc2cccc(C(F)(F)F)c2)=C1C (centres unmarked) [Example 91, [3-(trifluoromethyl)phenyl]methyl 4-(4-chlorophenyl)-1-(2-methoxyethyl)-6-methyl-2-oxo-3,4-dihydropyridine-5-carboxylate] | 83% | 78% |
| CC1=C(C(=O)OCc2ccccc2)C(c2ccc(Cl)cc2)CC(=O)N1C (centres unmarked) [Compound 17, 4-(4-Chloro-phenyl)-1,2-dimethyl-6-oxo-1,4,5,6-tetrahydro-pyridine-3-carboxylic acid benzyl ester] | 67% | 72% |
| CC1=C(C(=O)OCc2ccccc2)C(c2ccc(Cl)cc2)CC(=O)N1CC1CC1 (centres unmarked) [Compound 43, Benzyl 4-(4-chlorophenyl)-1-(cyclopropylmethyl)-6-methyl-2-oxo-3,4-dihydropyridine-5-carboxylate] | 78% | – |
| COc1ccccc1COC(=O)C1=C(C)N(C[C@H]2CCCO2)C(=O)C[C@H]1c1ccc(Cl)cc1 (racemic) [Compound 67, (2-methoxyphenyl)methyl (4S)-4-(4-chlorophenyl)-6-methyl-2-oxo-1-[[(2R)-tetrahydrofuran-2-yl]methyl]-3,4-dihydropyridine-5-carboxylate] | – | 101% |

— patent US9932309B2, “2-oxo-3,4-dihydropyridine-5-carboxylates and their use” (UNIVERSITE DE LILLE 2 DROIT ET SANTE, priority 2014, dated 2018)
